# Results: PubChem BioAssay AID493008 (The Scripps Research Institute Molecular Screening Center, 2010)
# The list shows a part of the results, in another mix than the full data. The source made the active and inactive calls.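 The calls were made as follows: active = activation above the mean over all tested compounds plus 3 SD (cut at about 30% in these data); inactive = the rest.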
# Target: Troponin I, cardiac muscle (Homo sapiens) + Troponin T, cardiac muscle (Homo sapiens) + Troponin C, slow skeletal and cardiac muscles (Homo sapiens) (UniProt P19429+P45379+P63316)
# Test: cardiac RTF calcium sensitivity activators, primary screen, biochemical, IANBD-TnC fluorescence, EC20 calcium (AID 493008);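 also: rise in fluorescence read as greater calcium sensitivity of cardiac thin filaments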
# Conditions: IANBD-labeled TnC RTF fluorescence at EC20 calcium; at 7.2 µM; stronger effect = higher value; 0% EC20 calcium, 100% full calcium
row,Compound,activation
1,CCC(=O)N(c1ccccc1)C1(COC)CCN(CCn2nnn(CC)c2=O)CC1,inactive: -6.34%
2,CCC(=O)N(c1ccccc1)C1(COC)CCN(CCc2cccs2)CC1,inactive: -4.51%
